Measured values taken from patent US10807993B2, “Dihydrochromene derivatives” (Sumitomo Dainippon Pharma Co., Ltd., priority 2018, dated 2020).

Chains of the proteins cited; added tags and fusions are not shown.
UniProt Q12809, whole entry: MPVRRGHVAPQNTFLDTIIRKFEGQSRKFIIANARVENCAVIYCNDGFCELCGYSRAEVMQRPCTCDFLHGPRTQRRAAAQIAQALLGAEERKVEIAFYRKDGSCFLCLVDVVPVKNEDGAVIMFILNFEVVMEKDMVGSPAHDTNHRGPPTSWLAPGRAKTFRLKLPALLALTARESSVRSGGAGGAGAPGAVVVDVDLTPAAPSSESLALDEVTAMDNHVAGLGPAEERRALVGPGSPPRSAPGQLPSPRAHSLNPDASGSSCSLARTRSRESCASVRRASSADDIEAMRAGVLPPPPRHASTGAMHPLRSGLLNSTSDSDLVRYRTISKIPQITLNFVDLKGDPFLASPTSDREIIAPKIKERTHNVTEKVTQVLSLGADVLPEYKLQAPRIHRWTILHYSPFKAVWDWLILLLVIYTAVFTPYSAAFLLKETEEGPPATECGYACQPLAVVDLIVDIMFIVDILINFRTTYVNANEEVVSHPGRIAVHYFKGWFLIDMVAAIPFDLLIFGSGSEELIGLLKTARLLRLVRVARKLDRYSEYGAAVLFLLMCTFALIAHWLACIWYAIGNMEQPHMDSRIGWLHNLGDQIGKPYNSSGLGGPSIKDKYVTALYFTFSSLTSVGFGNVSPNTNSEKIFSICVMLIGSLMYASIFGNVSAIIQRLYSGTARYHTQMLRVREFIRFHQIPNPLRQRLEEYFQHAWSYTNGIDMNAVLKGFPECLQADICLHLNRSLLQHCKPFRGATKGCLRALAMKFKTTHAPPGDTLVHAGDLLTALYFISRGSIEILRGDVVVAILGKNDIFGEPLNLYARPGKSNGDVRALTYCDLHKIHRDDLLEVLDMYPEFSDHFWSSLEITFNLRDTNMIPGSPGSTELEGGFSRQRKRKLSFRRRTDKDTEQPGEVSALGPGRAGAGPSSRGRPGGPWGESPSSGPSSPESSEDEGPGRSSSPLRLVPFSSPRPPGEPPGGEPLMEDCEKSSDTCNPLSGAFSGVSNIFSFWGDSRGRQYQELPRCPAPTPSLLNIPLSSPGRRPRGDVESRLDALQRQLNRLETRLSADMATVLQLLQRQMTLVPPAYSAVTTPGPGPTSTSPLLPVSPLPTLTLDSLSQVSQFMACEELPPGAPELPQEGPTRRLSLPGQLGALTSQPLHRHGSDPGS

Experiments:
HT-29 cells = test: Inhibition test for sphere formation assay of cancer cells; conditions: for IC50: read-out: Sphere IC50 value (concentration for 50% inhibition of cell proliferation), sphere culture (ultra-low attachment, serum-free), 4 days, CellTiter-Glo; for activity for inhibiting cell proliferation in the sphere culture condition: summary in words
hERG = hERG (Homo sapiens (Human), UniProt Q12809); test: Test for evaluating hERG inhibition (QPatch HT, CHO cell strain stably expressing hERG); assay type: cell-based; conditions: for hERG/HT-29: hERG IC50 (Test 2) divided by HT-29 sphere IC50 (Test 1); for deviation between the concentration of inhibiting 50% cell proliferation and the concentration of inhibiting 50% hERG current: summary in words of hERG/HT-29

SMILES | IC50 (HT-29 cells) | activity for inhibiting cell proliferation in the sphere culture condition (HT-29 cells) | hERG/HT-29 (hERG) | deviation between the concentration of inhibiting 50% cell proliferation and the concentration of inhibiting 50% hERG current (hERG)
Cn1cncc1CN1CCC2(CC1)COC1c3ccc(Cl)cc3OC(C)(C)C1C2 (stereo not shown) | < 10 nM | potent activity | >140 | good deviation
Cn1cncc1CN1CCC2(CC1)COC1c3cc(Cl)ccc3OC(C)(C)C1C2 (stereo not shown) | < 10 nM | potent activity | >80 | good deviation
Cc1nc[nH]c1CN1CCC2(CC1)COC1c3ccc(Cl)cc3OC(C)(C)C1C2 (single isomer, unassigned) | 40 nM |  |  | 
CC1(C)Oc2ccc(Cl)cc2C2OCC3(CCN(C(=O)Cn4cnc(CO)c4)CC3)CC21 (stereo not shown) | 1200 nM |  |  | 
